Laboratory results published in patent US6642247B2 (priority 1998, dated 2003).

Amino acid sequences for entries named in this document (tags omitted). A change or cut given only in a name is not applied to a line headed by its entry.
UniProt P35370: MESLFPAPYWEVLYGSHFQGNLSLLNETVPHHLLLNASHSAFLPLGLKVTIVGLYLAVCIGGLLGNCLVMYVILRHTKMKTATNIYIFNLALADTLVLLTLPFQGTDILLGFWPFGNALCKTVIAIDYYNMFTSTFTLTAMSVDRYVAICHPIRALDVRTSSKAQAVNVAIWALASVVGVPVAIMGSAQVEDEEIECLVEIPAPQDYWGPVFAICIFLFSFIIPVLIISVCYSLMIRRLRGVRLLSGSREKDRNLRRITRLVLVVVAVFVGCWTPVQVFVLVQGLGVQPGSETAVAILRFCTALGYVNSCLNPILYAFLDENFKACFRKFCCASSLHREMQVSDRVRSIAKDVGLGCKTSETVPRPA

Target: rat OFQ receptor (LC132) (Rattus norvegicus, UniProt P35370)
Experiment: OFQ-R binding assay ([3H]-OFQ competition, 293s-OFQ-R membranes)
Conditions: IC50 converted to Ki by Cheng and Prusoff

SMILES | affinity to the OFQ-receptor, given as pKi
Cl.c1ccc(N2CCCC23CCN(C2Cc4cccc5cccc2c45)CC3)cc1 (racemic) | 8.6
CC(C)[C@H]1CC[C@@H](N2CCC3(CC2)C(=O)CCN3c2ccccc2)CC1.Cl (relative stereo) | 9.4
